Details: coated at 100 μM; shelf 4° C. 2 weeks, EtO sterilized; OD at 10 min (405 nm)

For “(DOPA)2-(ALA-Aib)3-RIGSY-(Biotin)-OH [PEPTIDE-2]”, the “impact of shelving and sterilizing on amount of peptide present on the stainless steel surface” value was “do not negatively impact”.
